Measured values published in patent US20240376226A1, “COMPOSITIONS AND METHODS RELATING TO TUMOR ACTIVATED T CELL ENGAGERS” (Janux Therapeutics, Inc., priority 2019, published 2024).

Amino acid sequences for entries named in this document (tags omitted). Residues count along the entry.
UniProt P02701, 25-152: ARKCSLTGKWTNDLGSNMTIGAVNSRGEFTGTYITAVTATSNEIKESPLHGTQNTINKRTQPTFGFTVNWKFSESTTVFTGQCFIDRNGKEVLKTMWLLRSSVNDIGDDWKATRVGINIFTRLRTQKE

Legend:
[1] = target: SP34 (Ab-9, Ab-10); assay: ELISA equilibrium binding of antibody to peptides; conditions: Target SP34; antibody titrated on captured peptide
[2] = tested on: SP34 (Ab-9, Ab-10); assay: Phagemid hit identification ELISA on captured SP34; type: binding; conditions: clonal phage, ELISA signal on captured SP34 (Ab-9, Ab-10)
[3] = tested on: SP34 (Ab-9, Ab-10); assay: Phagemid competition ELISA, SP34 pre-incubated with CD3; type: binding
[4] = target: neutravidin (Gallus gallus, UniProt P02701); assay: Phage ELISA, phage binding to neutravidin alone (NAv bkgd)
[5] = tested on: SP34 (Ab-9, Ab-10); assay: BLI kinetic binding of antibody to peptides (Octet); conditions: Target SP34; biotinylated synthetic peptide on sensor
[6] = tested on: SP34 (Ab-9, Ab-10) binding to CD3; assay: BLI inhibition of kinetic binding of antibody to cognate antigen by peptides; conditions: Target SP34, 100 uM peptide
[7] = target: Trastuzumab (Ab-6, Ab-7); assay: ELISA equilibrium binding of antibody to peptides; conditions: Target Trastuzumab; antibody titrated on captured peptide
[8] = tested on: Trastuzumab (Ab-6, Ab-7); assay: Phagemid competition ELISA, Trastuzumab pre-incubated with soluble HER2; type: binding
[9] = tested on: Trastuzumab (Ab-6, Ab-7); assay: BLI kinetic binding of antibody to peptides (Octet); conditions: Target Trastuzumab; biotinylated synthetic peptide on sensor

SMILES | EC50 [1] [nM] | Phage ELISA Ab-9, Ab-10 signal [2] | Phage ELISA 20 nM CD3 % inhib ([3]; 20 nM CD3 pre-incubation) [%] | Phage ELISA 200 nM CD3 % inhib ([3]; 200 nM CD3 pre-incubation) [%] | Phage ELISA NAv bkgd ([4]; clonal phage, ELISA signal on neutravidin alone) | Octet BLI Binds [5] | Octet BLI Competes at 100 uM [6] | EC50 [7] [nM] | Phage ELISA 6 nM Her2 % inhib ([8]; pre-incubation with 6 nM soluble HER2) [%] | Phage ELISA 20 nM Her2 % inhib ([8]; pre-incubation with 20 nM soluble HER2) [%] | Phage ELISA NAv bkgd ([4]; clonal phage panned against Ab-6, Ab-7, signal on neutravidin alone) | Octet BLI Binds [9]
CC[C@H](C)[C@@H]1NC(=O)[C@H](CC(=O)O)NC(=O)[C@@H]2CCCN2C(=O)[C@H](CC(=O)O)NC(=O)[C@H](Cc2c[nH]cn2)NC(=O)[C@@H](NC(=O)[C@H](CC(N)=O)NC(=O)CNC(=O)CN)CSSC[C@@H](C(=O)N[C@@H](CO)C(=O)NCC(=O)NCC(=O)NCC(=O)NCC(=O)N[C@@H](CO)C(=O)NCCOCCOCCOCCOCCC(=O)N[C@@H](CCCCNC(=O)CCCC[C@@H]2SC[C@@H]3NC(=O)N[C@@H]32)C(N)=O)NC(=O)[C@H](CC(C)C)NC(=O)[C@H](C(C)C)NC(=O)[C@H](Cc2ccc(O)cc2)NC(=O)[C@H](C)NC(=O)[C@@H]2CCCN2C1=O [Peptide-26] | 8.69 | 0.540 | 81 | 85 | 0.084 | YES | YES |  |  |  |  | 
CC[C@H](C)[C@H](NC(=O)[C@H](CC(N)=O)NC(=O)CNC(=O)CN)C(=O)N[C@H]1CSSC[C@@H](C(=O)N[C@@H](C)C(=O)N[C@H](C(=O)NCC(=O)NCC(=O)NCC(=O)NCC(=O)N[C@@H](CO)C(=O)NCCOCCOCCOCCOCCC(=O)N[C@@H](CCCCNC(=O)CCCC[C@@H]2SC[C@@H]3NC(=O)N[C@@H]32)C(N)=O)C(C)C)NC(=O)CNC(=O)[C@H](CO)NC(=O)[C@H](CCCNC(=N)N)NC(=O)[C@H](Cc2c[nH]c3ccccc23)NC(=O)[C@H](CO)NC(=O)[C@H](Cc2ccc(O)cc2)NC(=O)[C@H](CC(=O)O)NC(=O)[C@H](CCSC)NC1=O [Peptide-15] |  |  |  |  |  |  |  | 0.05 | 95 | 98 | 0.084 | YES
